{"source": "patent US20240368145A1", "about": "“METHODS FOR TREATING CANCER” (IMMUNIC AG, priority 2021, published 2024)", "key": {"AR-V7 protein": {"test_system": "AR-V7 protein", "test": "Androgen receptor protein expression (western blot) in 22Rv1: AR-V7", "format": "cell-based, human", "conditions": "22Rv1, 6 μM, 48 h; western blot quantification", "experimental": "(§1) After 48 h, cell were lysed using cell extraction buffer (Life Technologies #FNN0011) for western blot. […] The membrane is then incubation for 1 hour in blocking buffer (5% milk in 20 mM Tris, 150 mM NaCl, pH 7.5, 0.05% Tween 20 [TBS-T]). After this incubation, the primary antibody is added and incubated overnight at 4° C. After washing, the membrane was incubated with the secondary antibody for 1 h. Visualization of the bands was performed using the femto maximum sensitivity substrate reagent and the luminescence signal recorded with the Fusion FX7 (Vilber). For protein quantification, InageJ was used."}, "AR-FL protein": {"test_system": "AR-FL protein", "test": "Androgen receptor protein expression (western blot) in 22Rv1: AR-FL", "format": "cell-based, human", "conditions": "22Rv1, 6 μM, 48 h; western blot quantification", "experimental": "as §1"}}}
{"smiles": "CNC(=O)c1ccc(N2C(=S)N(c3ccc(C#N)c(C(F)(F)F)c3)C(=O)C2(C)C)cc1F", "note": "[enzalutamide, reference compound]", "values": [{"measurement": "AR-V7 protein level", "setting": "AR-V7 protein", "result": 0.704}, {"measurement": "AR-FL protein level", "setting": "AR-FL protein", "result": 0.886}]}
